# According to patent publication US11166940B2, “Treatment of cardiac disorders by blocking SK4 potassium channel” (Ramot at Tel-Aviv University Ltd., priority 2016, dated 2021):
# Molecular target: SK4 K+ currents (Homo sapiens, UniProt O15554)
# Conditions: for cells in which TRAM-34 sensitive currents were observed: 5 μM TRAM-34
# Experimental: The spontaneous automaticity of isolated SAN cells was recorded under perforated-patch conditions by adding 30 μM β-escin49 to the intracellular solution containing (in mM): 130 KCl, 10 NaCl, 10 HEPES, 0.2 EGTA-KOH, 2 MgATP, 6.6 Phosphocreatine, 0.05 cAMP and 1 μM free Ca^2+ (pH 7.2). To record SK4 K+ current, a voltage ramp protocol was applied. SAN and hiPS-CMs were held at −40 mV and −20 mV, respectively to substantially inactivate voltage-gated Na^+ and Ca^2+ currents. Cells were stepped from −90 mV to +60 mV for 150 ms. Then, a cocktail (solution 1) containing (in mM) 0.3 cadmium, 0.025 ZD-7288 and 0.01 E-4031 was applied extracellularly to inhibit residual L-type and T-type voltage-gated Ca2+ currents, If and the IKr currents, respectively. […] For voltage-clamp recording of SAN cells, the intracellular solution was the same to that described above for recording spontaneous automaticity.
smiles,measurement,setting,value
"Clc1ccccc1C(c1ccccc1)(c1ccccc1)n1cccn1 [TRAM-34, 1-[(2-chlorophenyl)diphenylmethyl]-1H-pyrazole]",currents remaining in solution 1 (inward and outward),"5 μM TRAM-34 added to solution 1, 1 μM internal free Ca2+, normal and CPVT2 hiPS-CMs",decreased the currents in both inward and outward directions
same,cells in which TRAM-34 sensitive currents were observed,CPVT2 hiPSC-CMs,9 out of 13
same,cells in which TRAM-34 sensitive currents were observed,normal hiPS-CMs,7 out of 15

# Read-outs that look alike come from different tables or passages of the source.
